# Assay results from ChEMBL document CHEMBL5042497, “Design, synthesis, and biological evaluation of carbamate derivatives of N-salicyloyl tryptamine as multifunctional agents for the treatment of Alzheimer's disease” (Eur J Med Chem, 2022).
# By UniProt entry, the sequences of proteins in these tests, tags left out. Where a name states a change or a piece, a line headed by the entry shows the natural chain unless it says otherwise.
# UniProt P22303: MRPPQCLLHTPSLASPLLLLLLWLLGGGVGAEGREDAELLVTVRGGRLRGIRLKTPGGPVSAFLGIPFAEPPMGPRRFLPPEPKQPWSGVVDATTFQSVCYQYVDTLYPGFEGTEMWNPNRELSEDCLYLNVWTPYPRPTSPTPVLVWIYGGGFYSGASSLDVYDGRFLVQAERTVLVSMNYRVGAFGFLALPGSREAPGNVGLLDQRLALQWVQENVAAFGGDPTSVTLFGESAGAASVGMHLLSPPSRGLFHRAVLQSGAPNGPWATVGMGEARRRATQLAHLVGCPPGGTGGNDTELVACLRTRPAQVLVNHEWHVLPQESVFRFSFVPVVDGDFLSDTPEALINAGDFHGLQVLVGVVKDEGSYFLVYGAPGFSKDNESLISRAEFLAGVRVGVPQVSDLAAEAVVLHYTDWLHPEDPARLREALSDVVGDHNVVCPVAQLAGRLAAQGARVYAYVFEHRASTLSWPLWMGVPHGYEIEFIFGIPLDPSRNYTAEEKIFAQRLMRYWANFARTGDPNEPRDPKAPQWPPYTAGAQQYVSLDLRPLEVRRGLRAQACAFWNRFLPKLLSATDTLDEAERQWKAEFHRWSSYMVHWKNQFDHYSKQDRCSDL
# Molecular target: Acetylcholinesterase (Homo sapiens, UniProt P22303)
# Assay: Inhibition of AChE (unknown origin)
compound,measurement,value
CC(C)c1ccc(NC(=O)Oc2ccc3c(c2)[C@]2(C)CCN(C)[C@@H]2N3C)cc1 [4-ISOPROPYLPHENSERINE],IC50,50 nM
